Data published in patent US20200308624A1, “Phosphate and tensin homolog (PTEN) for the detection of autoimmune diseases or conditions” (Universitätsmedizin der Johannes Gutenberg-Universität Mainz, priority 2019, published 2020).
“Also recorded” adds a separate entry of the source.

Key:
Type in all cases: in vivo, human
PKB/c-Akt = assay: IFN-β therapy of MS patients: PKB/c-Akt phosphorylation in CD3+ T cells (flow cytometry); details: IFN-β-treated MS patients, similar to healthy controls
Procedure: (§1) A) Treg-depleted PBMC from therapy-naive (red), IFN-β-treated MS patients (blue) or HC (black) were cocultured with allogeneic Treg and stimulated with anti-CD3 mAb. T cell proliferation was determined by ^3H-Tdr incorporation on day three. Box plots show percentage of suppression in presence of Treg (ratio 1:1) normalized to proliferation of PBMC alone as median with interquartile range (n=15), p-values relative to suppression of HC or therapy-naïve MS, to avoid familywise error rate bonferroni correction was used indicated as (p*). B) PKB/c-Akt phosphorylation was determined by flow cytometry within CD3+ T cells from therapy-naive (red), IFN-β-treated MS patients (blue) or HC (black). […] C) IL-6R expression within PBMC from HC (black), therapy-naive (red), or IFN-β-treated (blue) MS patients was determined by flow cytometry. […]
(§2) Flow cytometric analysis was performed using the following antibodies: anti-human CD3 (UCHT1), anti-human CD4 (RPA-T4), anti-human CD8 (SK1), anti-human CD14 (M5E2), anti-human CD19 (HIB19), all from BD Pharmingen, anti-human CD25 (4E3), anti-human CD127 (MB15-18C9), all from Miltenyi Biotec. […] Cell viability during flow cytometric analysis was determined using 7-AAD and eFluor506 (eBioscience). […] Stained cells were measured on LSRII with FACS Diva Software (BD Bioscience) or FACSVia™ and data was analyzed with BD FACSVia Research Software (BD Biosciences). […]

T cells from MS patients = assay: IFN-β therapy of MS patients: Treg-mediated suppression of patients' T cells (3H-Tdr); details: IFN-β-treated MS patients vs therapy-naive MS and HC
Procedure: as §1, with “(black). Grey histogram depicts isotypic control of MS.” for “(black).”, “cytometry. Box plots show percentage of IL-6R^+ cells within CD3^+ T cells of six independent donors, p-values relative to IL-6R expression of therapy-naïve MS or HC are shown.” for “cytometry.”
CD4^+CD25^− T cells (10^5 cells/well, 96 well plate, flat bottom) were stimulated with 0.1 μg/ml anti-CD3 mAb (OKT-3) and cultured in presence or absence of different Treg ratios. […] T cell proliferation was measured by ^3H-Tdr incorporation using a liquid […] counter. […]

IL-6 receptor = assay: IFN-β therapy of MS patients: IL-6R expression in CD3+ T cells (flow cytometry); details: IFN-β-treated MS patients, similar to healthy controls
Procedure: as §1, §2

B1: IFN-β: IFN-β therapy of MS patients (protein, UniProt P01574 22-187, looked up)
Interferon beta: MSYNLLGFLQRSSNFQCQKLLWQLNGRLEYCLKDRMNFDIPEEIKQLQQFQKEDAALTIYEMLQNIFAIFRQDSSSTGWNETIVENLLANVYHQINHLKTVLEEKLEKEDFTRGKLMSSLHLKRYYGRILHYLKAKEYSHCAWTIVRVEILRNFYFINRLTGYLRN
B1 was tested, and the PKB activity (PKB/c-Akt) was “normalization”, the “susceptibility of CD4+ T cells towards Treg-mediated immunoregulation” value (T cells from MS patients) was “improves responsiveness of T cells; also recorded: restores susceptibility of CD4+ T cells towards Treg-mediated immunoregulation” and the IL-6 receptor expression (IL-6 receptor) was “normalization”.
